According to patent US12076341B2, “Use of apoptotic compensatory proliferation signaling vesicles in tissue repair and wound healing” (Rush University Medical Center, priority 2018, dated 2024):

Test system: Hela cells
Test: Necrotic cell death of HeLa cells: vesicle production and CPS
Details: treatment with 0.5 mM MNNG

## CN(N=O)C(=N)N[N+](=O)[O-]
  production of Crkl-containing ACPSVs by necrotic HeLa cells: did not produce
Cell counts 24 h
  compensatory proliferation in adherent Hela cells by 16K fraction of necrotic cells: failed to induce compensatory proliferation
